Assay results published in ChEMBL document CHEMBL6071213, “Bicyclic Inhibitors of Branched-Chain α-Keto Acid Dehydrogenase Kinase (BDK) with In Vivo Activity” (ACS Med Chem Lett, 2024).

Legend:
[1] = target: Branched-chain alpha-ketoacid dehydrogenase kinase (Mus musculus) (UniProt O55028); conditions: Kidney, dose 20.0 mg/kg, route ip, time 3.0 day
[2] = target: Branched-chain alpha-ketoacid dehydrogenase kinase (Mus musculus) (UniProt O55028); conditions: Liver, dose 20.0 mg/kg, route ip, time 3.0 day
[3] = target: Branched-chain alpha-ketoacid dehydrogenase kinase (Mus musculus) (UniProt O55028); conditions: Heart, dose 20.0 mg/kg, route ip, time 3.0 day
[4] = target: Branched-chain alpha-ketoacid dehydrogenase kinase (Mus musculus) (UniProt O55028); conditions: Liver, dose 60.0 mg/kg, route ip, time 3.0 day
[5] = target: Branched-chain alpha-ketoacid dehydrogenase kinase (Mus musculus) (UniProt O55028); conditions: Heart, dose 60.0 mg/kg, route ip, time 3.0 day
[6] = target: Branched-chain alpha-ketoacid dehydrogenase kinase (Mus musculus) (UniProt O55028); conditions: Liver, dose 60.0 mg/kg, route ip, time 3.0 day; remark: listed apart in the source
[7] = target: Branched-chain alpha-ketoacid dehydrogenase kinase (Mus musculus) (UniProt O55028); conditions: Kidney, dose 60.0 mg/kg, route ip, time 3.0 day
[8] = target: Branched-chain alpha-ketoacid dehydrogenase kinase (Mus musculus) (UniProt O55028); conditions: Heart, dose 60.0 mg/kg, route ip, time 3.0 day; remark: listed apart in the source
[9] = target: Branched-chain alpha-ketoacid dehydrogenase kinase (Mus musculus) (UniProt O55028); conditions: Kidney, dose 60.0 mg/kg, route ip, time 3.0 day; remark: listed apart in the source

Structure (SMILES) | inhibition [1] [%] | inhibition [2] | inhibition [3] [%] | inhibition [4] | inhibition [5] [%] | inhibition [6] | inhibition [7] [%] | inhibition [8] | inhibition [9]
O=C(O)c1sc2cc(Cl)ccc2c1Cl | 50 | Active | 50 | – | – | – | – | – | –
O=C(Nc1nc(-c2ccc(F)cc2F)cs1)[C@H]1[C@H](C(=O)O)[C@H]2C=C[C@@H]1C2 | – | – | – | inactive | 50 | Active | 50 | inactive | inactive

Activity calls are given as the source filed them. No cut-off for these calls is given here.
